Assay results from patent US7816560B1, “Long chain n-alkyl compounds and oxa-derivatives thereof” (Thomas Jefferson University, priority 1999, dated 2010).

The chains behind the UniProt entries cited, without tags or fusion partners.
UniProt Q16739, whole entry: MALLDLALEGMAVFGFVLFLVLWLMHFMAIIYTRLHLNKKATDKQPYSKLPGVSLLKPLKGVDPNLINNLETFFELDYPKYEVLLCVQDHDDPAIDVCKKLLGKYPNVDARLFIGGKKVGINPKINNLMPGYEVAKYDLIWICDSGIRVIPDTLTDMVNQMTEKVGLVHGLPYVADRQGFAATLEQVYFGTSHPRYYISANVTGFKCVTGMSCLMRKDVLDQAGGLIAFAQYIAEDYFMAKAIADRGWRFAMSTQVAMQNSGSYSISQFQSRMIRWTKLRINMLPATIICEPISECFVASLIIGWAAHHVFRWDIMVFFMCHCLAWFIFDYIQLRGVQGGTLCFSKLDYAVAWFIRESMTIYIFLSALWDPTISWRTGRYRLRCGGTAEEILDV

Assays:
MDBK cells = experiment: Toxicity / cell cytotoxicity in MDBK cells; type: cell-based; details: for % Viability at 10 μM: N-alkyl DNJ at 10 μM; for % Viability at 100 μM: N-alkyl DNJ at 100 μM
[1] = target: ceramide glucosyl transferase (CerGlcT) (Homo sapiens, UniProt Q16739); experiment: Inhibition of ceramide glucosyl transferase / glycolipid synthesis; type: biochemical; details: read-out: CerGlcT (IC50); N-alkyl DNJ derivatives

Row | SMILES | % Viability at 10 μM (MDBK cells) | % Viability at 100 μM (MDBK cells) | pIC50 [1]
1 | CCCCCCCCCCCCCCCCCCN1C[C@H](O)[C@@H](O)[C@H](O)[C@H]1CO | 84% | 2% | 5.39
2 | CCCCCN1C[C@H](O)[C@@H](O)[C@H](O)[C@H]1CO | 80% | 70% | 4.57
3 | CCCCCCCCCCCCCCCCN1C[C@H](O)[C@@H](O)[C@H](O)[C@H]1CO | 88% | 4% | 5.47

pIC50: −log10 of the molar value.
